One experiment deals with CHO cells. Type of experiment: cell-based. As to conditions: data not shown. The method, then:
CHO cells were plated at 20.000 cells/well into black walled, clear bottom 96-well plate (Corning, Germany) and cultured one day up to 80–90% of confluence. […] TLQP-21, TLQP-62, TLQP-8, HHPD-41, HFHH-10, and LRPS-21 were diluted in HBSS solution and injected into the wells by an automated injector system. […] Depletion of Ca^2+ from the ER leads to Ca^2+ entry from outside the cell by activation of Store-Operated Channels (SOCs).

The test system of experiment [1] is TLQP-21 binding sites on CHO cell membranes. Description: TLQP-21 binding assay with [125I]-YATL-23 on crude CHO cell membranes. As to conditions: mean ± SEM of three independent experiments. The method, then:
Binding of TLQP-21 to crude membranes (30,000 × g pellet) obtained from CHO cells was carried out using [^125I]-YATL-23 as ligand. YATL-23 was radioiodinated (specific activity, 2000 Ci/mmol) using the lactoperoxidase method ([Muccioli et al., 1998]; [Muccioli et al., 2001]) by Perkin Elmer (Milan, Italy) and purified by reverse phase high-performance liquid chromatography. For the single point binding assay, cell membranes (corresponding to 100 μg membrane protein) were incubated in triplicate at 23°C, unless otherwise noted, for 4 h under constant shaking with 0.5 nM [^125I]-YATL-23 in a final volume of 0.5 ml assay buffer (50 mM Tris, 2.5 mM EGTA, 0.002% bacitracin, 0.1% bovine serum albumin, titrated to a final pH of 7.4 with HCl). Non-specific binding was measured in parallel incubations with 1 μM unlabelled YATL-23 to displace the radioligand. Similar results were obtained using TLQP-21 to displace the radioligand. The binding reaction was terminated by the addition of ice-cold assay buffer, followed by rapid filtration through Whatman GF/B filters as previously reported ([Muccioli et al., 1998]) and the radioactivity bound to membranes was measured by a Packard auto-γ-counter. Specific binding-values were calculated as the difference obtained subtracting non-specific from total binding. Specific binding was expressed as a percentage of the total radioactivity added. […]

What is called IC50 is the concentration at which inhibition is half-maximal. The term Kd denotes the free concentration of one partner at which half of the binding sites on the other are occupied at equilibrium, for simple one-to-one binding.

`CC(C)C[C@H](NC(=O)[C@@H](NC(=O)[C@H](C)NC(=O)[C@@H](N)Cc1ccc(O)cc1)[C@@H](C)O)C(=O)N[C@@H](CCC(N)=O)C(=O)N1CCC[C@H]1C(=O)N1CCC[C@H]1C(=O)N[C@@H](C)C(=O)N[C@@H](CO)C(=O)N[C@@H](CO)C(=O)N[C@@H](CCCNC(=N)N)C(=O)N[C@@H](CCCNC(=N)N)C(=O)N[C@@H](CCCNC(=N)N)C(=O)N[C@@H](Cc1c[nH]cn1)C(=O)N[C@@H](Cc1ccccc1)C(=O)N[C@@H](Cc1c[nH]cn1)C(=O)N[C@@H](Cc1c[nH]cn1)C(=O)N[C@@H](C)C(=O)N[C@@H](CC(C)C)C(=O)N1CCC[C@H]1C(=O)N1CCC[C@H]1C(=O)N[C@@H](C)C(=O)N[C@@H](CCCNC(=N)N)C(=O)O` [YATL-23]: in the experiment on CHO cells, the “in vitro biological activity in CHO cells compared with TLQP-21” value was “same in vitro biological activity of TLQP-21”. For the same compound, the IC50 in experiment [1] (competition with 1 nM [125I]-YATL-23, 150 μg membranes/tube, competitor 10 pM to 0.1 μM, one-site binding model, read-out: IC50 of specific radioligand binding) stood at 1.2 nM.

In the case of `CC(C)C[C@H](NC(=O)[C@@H](NC(=O)[C@H](C)NC(=O)[C@@H](N)Cc1ccc(O)c(I)c1)[C@@H](C)O)C(=O)N[C@@H](CCC(N)=O)C(=O)N1CCC[C@H]1C(=O)N1CCC[C@H]1C(=O)N[C@@H](C)C(=O)N[C@@H](CO)C(=O)N[C@@H](CO)C(=O)N[C@@H](CCCNC(=N)N)C(=O)N[C@@H](CCCNC(=N)N)C(=O)N[C@@H](CCCNC(=N)N)C(=O)N[C@@H](Cc1c[nH]cn1)C(=O)N[C@@H](Cc1ccccc1)C(=O)N[C@@H](Cc1c[nH]cn1)C(=O)N[C@@H](Cc1c[nH]cn1)C(=O)N[C@@H](C)C(=O)N[C@@H](CC(C)C)C(=O)N1CCC[C@H]1C(=O)N1CCC[C@H]1C(=O)N[C@@H](C)C(=O)N[C@@H](CCCNC(=N)N)C(=O)O` [[^125I]-YATL-23], the Kd in experiment [1] (saturation binding, 0.03–4 nM [125I]-YATL-23, 100 μg membrane protein, pH 7.4, 4 h, 23°C, Scatchard analysis, read-out: Kd (dissociation constant) of specific binding) amounted to 0.55 nM.

Source of the values: article PMC5371653, “Pharmacological and Biochemical Characterization of TLQP-21 Activation of a Binding Site on CHO Cells” (Frontiers in Pharmacology, 2017).
